Laboratory results taken from US12551583B2, “Radiolabeled ligands for targeted PET/SPECT imaging and methods of their use” (MEMORIAL SLOAN KETTERING CANCER CENTER, priority 2016, dated 2026).

Test system: 4T1 orthotopic tumor-bearing BALB/c mice
Conditions: mouse, in vivo; for biodistribution, Blood / biodistribution, Bone / biodistribution, Brain / biodistribution, Heart / biodistribution, Kidneys / biodistribution, L. intestine / biodistribution, Liver / biodistribution, Lungs / biodistribution, Muscle / biodistribution, Pancreas / biodistribution, S. intestine / biodistribution, Skin / biodistribution, Spleen / biodistribution, Stomach / biodistribution, Tumor (4T1 tumoral uptake): iv, 4 h
Description: 4T1 orthotopic BALB/c mouse model. The cells were removed from the flasks, concentrated, and resuspended in minimal media for cell counting. The cells were then diluted to contain approximately 1 million cells in 30 μL of media (for orthotopic allografts). Following an MSKCC Institutional Animal Care and Use Committee approved protocol, 8-10 week old BALB/c mice (Charles River Laboratories, Wilmington, MA) were surgically implanted with one million 4T1 cancer cells into the first or the last mammary fat pad of the right side of the animal using aseptic surgical techniques and sterile staple closures while the mice were under anesthetic. Additionally, mice were given injections of meloxicam (24 h pain killer) in the scruff and bupivacaine intradermally prior to surgical incisions. One day post surgery, the mice were again given meloxicam and checked to ensure that the closure was healing. Two and three days post surgery, the mice were checked to ensure that the animals were healthy and recovering well from the surgery. Five to seven days post surgery, the staples were removed. Five to nine days post surgery, the mice were injected with 50-75 μCi (0.9-0.4 nmol) of the respective radiopharmaceutical for in vivo biodistribution or 500-600 μCi (9-11 nmol) for in vivo imaging. The mice receiving ^64Cu-NOTA-pHLIP were sacrificed at 1, 2, 4, 12, 24, 36, and 48 h; the mice receiving [^18F]—AlF-NOTA-pHLIP were sacrificed at 0.5, 1, 2, 4, 6 and 8 h. The 4T1 tumors in this study were purposely used 5-9 days after inoculation to ensure lower tumoral pH. Animal models. Animal studies were conducted according to MSKCC IACUC-approved animal protocol. 4T1 (orthotopic breast cancer allografts of 1×10^6 cells surgically implanted in the mammary fat pad) and B16-F10 (orthotopic melanoma allografts of 1×10^5 cells injected intradermally on the shoulder) tumors were orthotopically inoculated in media in female BALB/c and C57Bl/6 mice (Charles River Laboratories (CRL)), respectively. Additionally, PC3 (3×10^6 cells) or LNCaP (3-6×10^6 cells) tumors were subcutaneously xenografted on the shoulder of athymic nude male mice (CRL). Mice were used once tumor volumes were approximately 90-300 mm^3. In vivo animal PET imaging and biodistribution. Mice were injected with radiolabeled NOTA-pHLIP derivatives i.v. (500-700 μCi/mouse for PET or SPECT imaging studies and 25-100 μCi/mouse for biodistribution studies). All injections were less than 200 μL with <10% EtOH in sterile PBS. PET images were obtained with the mice under anesthesia in an Inveon PET-CT or microPET Focus 120 (Siemens) at 0.5-48 h p.i. All images were analyzed using ASIPro VM (Concorde Microsystems). SPECT images were obtained with the mice under anesthesia in a NanoSPECT/CT Plus at 4-24 h p.i. All SPECT images were reconstructed using HiSPECT and analyzed using InVivoScope. Dissections for ex vivo biodistribution were performed on mice after CO2 asphyxiation or cervical dislocation while anesthetized at reported time points. Weight of the syringe prior to injection and after injection was used to determine the mass of injectate. Activity of the syringe prior to injection and after injection was used to determine the percent of injectate administered. The mass injected was corrected by the percent of radioactivity injected. Four to five aliquots (10 μL) were weighed and counted as internal standards for each study. All of the collected organs were counted using an automatic gamma counter (Wizard 3″, PerkinElmer, Waltham, MA). The total injected dose was found as the mass injected dose×fraction radioactivity injected×internal standard average counts/g. The percent injected dose (% ID) was determined as the counts for the tissue×100/total injected dose. The % ID/g was calculated as the % ID/tissue weight. The average and standard deviation of the % ID and % ID/g was determined using normal methods (n−1) for each set of mice.

Structure (SMILES)	kidneys-to-large intestine ratio	biodistribution, Blood [% ID/g]	biodistribution, Bone [% ID/g]	biodistribution, Brain [% ID/g]	biodistribution, Heart [% ID/g]	biodistribution, Kidneys [% ID/g]	biodistribution, L. intestine [% ID/g]	biodistribution, Liver [% ID/g]	biodistribution, Lungs [% ID/g]	biodistribution, Muscle [% ID/g]	biodistribution, Pancreas [% ID/g]	biodistribution, S. intestine [% ID/g]	biodistribution, Skin [% ID/g]	biodistribution, Spleen [% ID/g]	biodistribution, Stomach [% ID/g]	biodistribution, Tumor (4T1 tumoral uptake) [% ID/g]
CC[C@@H](C)[C@@H](NC(=O)[C@H]1CCCN1C(=O)[C@@H](CC(N)=O)NC(=O)[C@@H](CCC(N)=O)NC(=O)[C@@H](CCC(=O)O)NC(=O)[C@@H](CS)NC(=O)[C@@H](C)NC(=S)Nc1ccc(CC2CN(CC(=O)O)CCN(CC(=O)O)CCN2CC(=O)O)cc1)C(=O)N[C@H](Cc1ccc(O)cc1)C(=O)N[C@H](Cc1c[nH]c2ccccc12)C(=O)N[C@H](C)C(=O)N[C@H](CCCNC(=N)N)C(=O)N[C@H](Cc1ccc(O)cc1)C(=O)N[C@H](C)C(=O)N[C@H](CC(=O)O)C(=O)N[C@H](Cc1c[nH]c2ccccc12)C(=O)N[C@H](CC(C)C)C(=O)N[C@H](Cc1ccccc1)C(=O)N[C@@H](C(=O)N[C@@H](C(=O)N1CCC[C@@H]1C(=O)N[C@H](CC(C)C)C(=O)N[C@H](CC(C)C)C(=O)N[C@H](CC(C)C)C(=O)N[C@H](CC(C)C)C(=O)N[C@H](CC(=O)O)C(=O)N[C@H](CC(C)C)C(=O)N[C@H](C)C(=O)N[C@H](CC(C)C)C(=O)N[C@H](CC(C)C)C(=O)N[C@@H](C(=O)N[C@H](CC(=O)O)C(=O)N[C@H](C)C(=O)N[C@H](CC(=O)O)C(=O)N[C@H](CCC(=O)O)C(=O)NCC(=O)N[C@@H](C(=O)O)[C@H](C)O)C(C)C)[C@H](C)O)[C@H](C)O (single isomer, unassigned) [[^18F]—AlF-NOTA-WT]	0.42±0.03	1.978 ± 0.192	0.671 ± 0.305	0.100 ± 0.015	0.66 ± 0.12	8.550 ± 1.138	24.06 ± 2.85	0.973 ± 0.213	2.049 ± 0.211	0.283 ± 0.041	0.324 ± 0.059	0.820 ± 0.245	1.032 ± 0.133	0.434 ± 0.058	0.518 ± 0.152	1.005 ± 0.232
CC[C@@H](C)[C@@H](NC(=O)[C@H]1CCCN1C(=O)[C@@H](CC(N)=O)NC(=O)[C@@H](CCC(N)=O)NC(=O)[C@@H](CCC(=O)O)NC(=O)[C@@H](CS)NC(=O)[C@@H](C)NC(=S)Nc1ccc(CC2CN(CC(=O)O)CCN(CC(=O)O)CCN2CC(=O)O)cc1)C(=O)N[C@H](Cc1ccc(O)cc1)C(=O)N[C@H](Cc1c[nH]c2ccccc12)C(=O)N[C@H](C)C(=O)N[C@H](CCCNC(=N)N)C(=O)N[C@H](Cc1ccc(O)cc1)C(=O)N[C@H](C)C(=O)N[C@H](CC(=O)O)C(=O)N[C@H](Cc1c[nH]c2ccccc12)C(=O)N[C@H](CC(C)C)C(=O)N[C@H](Cc1ccccc1)C(=O)N[C@@H](C(=O)N[C@@H](C(=O)N1CCC[C@@H]1C(=O)N[C@H](CC(C)C)C(=O)N[C@H](CC(C)C)C(=O)N[C@H](CC(C)C)C(=O)N[C@H](CC(C)C)C(=O)N[C@H](CC(=O)O)C(=O)N[C@H](CC(C)C)C(=O)N[C@H](C)C(=O)N[C@H](CC(C)C)C(=O)N[C@H](CC(C)C)C(=O)N[C@@H](C(=O)N[C@H](CC(=O)O)C(=O)N[C@H](C)C(=O)N[C@H](CC(=O)O)C(=O)N[C@H](CCC(=O)O)C(=O)NCC(=O)N[C@@H](C(=O)O)[C@H](C)O)C(C)C)[C@H](C)O)[C@H](C)O (single isomer, unassigned) [^64Cu-NOTA-WT, metal not drawn]	0.35±0.11	1.192 ± 0.263	0.274 ± 0.051	0.054 ± 0.002	0.50 ± 0.04	6.232 ± 0.613	9.96 ± 3.42	0.904 ± 0.097	1.414 ± 0.083	0.166 ± 0.008	0.261 ± 0.066	0.391 ± 0.082	0.715 ± 0.109	0.318 ± 0.023	0.282 ± 0.080	0.679 ± 0.025
